The text below walks through data of patent US20060019241A1, “Na+ and CI-coupled transport system for endogenous opioid peptides” (priority 2004, published 2006).

Experiment [1] deals with opioid peptide transport system of rat (rMC-1 Müller cell mRNA expressed in X. laevis oocytes; primary striatal neurons) (rat). In words: cell-based or functional assay.
Experiment [2] concerns the target Na+- and Cl--coupled transport system for endogenous opioid peptides (human cell lines ARPE-19, Tat-ARPE-19 and SK-N-SH) (human). The experiment in a line: cell-based or functional assay.

In experiment [1], “Deltorphin II (Tyr-D-Ala-Phe-Glu-Val-Val-Gly-NH2) (peptide)” came in with a deltorphin II (125 nM) uptake in X. laevis oocytes injected with rMC-1 poly(A)+ mRNA of 7 fold and a deltorphin II uptake in X. laevis oocytes injected with rMC-1 poly(A)+ mRNA of 8 fold. Moreover, in experiment [2], the IC50 for inhibition of [3H]deltorphin II uptake in Tat-ARPE-19 cells stood at 38.8 mM; the Michaelis-Menten constant (Kt) of deltorphin II uptake in Tat-ARPE-19 cells, NaCl is 46 µM; the [3H]deltorphin II (25 nM) uptake in SK-N-SH cells, NaCl, 30 min, no inhibitor (pmol/30 min/mg protein) is 3.
